Experimental data taken from ChEMBL document CHEMBL5518160, “Progress in the development of TRPV1 small-molecule antagonists: Novel Strategies for pain management” (Eur J Med Chem, 2023).

By UniProt entry, the sequences of proteins in these tests, tags left out.
UniProt O35433, whole entry: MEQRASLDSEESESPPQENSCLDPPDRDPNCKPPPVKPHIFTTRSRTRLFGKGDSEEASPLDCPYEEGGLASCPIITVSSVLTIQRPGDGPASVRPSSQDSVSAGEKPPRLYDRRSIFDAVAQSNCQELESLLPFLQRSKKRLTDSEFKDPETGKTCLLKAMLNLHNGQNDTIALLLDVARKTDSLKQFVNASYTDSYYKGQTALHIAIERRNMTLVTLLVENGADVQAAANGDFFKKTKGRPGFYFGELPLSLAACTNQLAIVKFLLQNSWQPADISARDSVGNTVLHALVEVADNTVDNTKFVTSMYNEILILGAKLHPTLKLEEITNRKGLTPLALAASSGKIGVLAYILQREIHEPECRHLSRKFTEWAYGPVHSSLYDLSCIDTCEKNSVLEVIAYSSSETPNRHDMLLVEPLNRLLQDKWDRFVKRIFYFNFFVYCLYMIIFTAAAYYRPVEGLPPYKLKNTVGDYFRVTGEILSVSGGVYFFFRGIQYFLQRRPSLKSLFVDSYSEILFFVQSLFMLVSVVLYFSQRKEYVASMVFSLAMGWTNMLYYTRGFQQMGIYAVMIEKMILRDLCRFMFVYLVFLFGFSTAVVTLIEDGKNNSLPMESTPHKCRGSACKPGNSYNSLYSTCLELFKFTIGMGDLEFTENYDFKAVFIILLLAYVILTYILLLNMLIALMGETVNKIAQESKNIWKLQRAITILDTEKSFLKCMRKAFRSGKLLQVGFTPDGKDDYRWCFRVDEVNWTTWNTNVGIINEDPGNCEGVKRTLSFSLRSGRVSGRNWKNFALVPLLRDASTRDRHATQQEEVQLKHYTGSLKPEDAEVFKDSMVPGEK

Biological target: Transient receptor potential cation channel subfamily V member 1 (Rattus norvegicus, UniProt O35433)
Experiment: Antagonist activity at rat TRPV1 assessed as inhibition of pH-induced increase in intracellular Ca2+ level
Assay type: cell-based

`CC(C)(C)c1ccc(NC(=O)N2CCN(c3ncccc3Cl)CC2)cc1` gave an IC50 of 6 nM.
